Test results from ChEMBL document CHEMBL4837261, “Optimization of TopoIV Potency, ADMET Properties, and hERG Inhibition of 5-Amino-1,3-dioxane-Linked Novel Bacterial Topoisomerase Inhibitors: Identification of a Lead with In Vivo Efficacy against MRSA” (J Med Chem, 2021).

How the values were obtained:
Staphylococcus aureus [1] = assay: Selectivity index, ratio of IC50 for inhibition of Staphylococcus aureus topoisomerase IV decatenation activity to IC50 for inhibition of Staphylococcus aureus DNA gyrase supercoiling activity
Outline: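 Both IC50s were measured in gel-based assays with S. aureus enzymes: supercoiling inhibition for DNA gyrase and decatenation inhibition for TopoIV. The ratio is TopoIV IC50 divided by gyrase IC50.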

Staphylococcus aureus [2] = assay: Selectivity ratio of IC50 for inhibition of Staphylococcus aureus Gyrase D83N mutant to IC50 for inhibition of Staphylococcus aureus Gyrase
Outline: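 Ratio of two IC50s: the IC50 from the D83N mutant gyrase supercoiling assay (commercial kit) divided by the IC50 from the gel-based wild-type S. aureus gyrase supercoiling assay.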

Row | Compound | Ratio IC50 (Staphylococcus aureus [1]) | Ratio IC50 (Staphylococcus aureus [2])
1 | COc1ccc2ncc(F)c(C[C@H](O)[C@H]3OC[C@H](NCc4cc5c(cn4)SCC(=O)N5)CO3)c2n1 | 2 | 398
2 | COc1ccc2ncc(F)c(C[C@H](O)[C@H]3OC[C@H](NCc4cc5c(nn4)OCCS5)CO3)c2n1 | 16 | 69
3 | COc1ccc2ncc(F)c(C(O)C[C@H]3OC[C@H](NCc4ccc5c(n4)NC(=O)CS5)CO3)c2c1 (mixture of isomers) | 4.6 | 
4 | COc1ccc2ncc(F)c(C[C@H](O)[C@H]3OC[C@H](NCc4cc5c(cn4)OCCC5)CO3)c2n1 | 9.3 | 98
5 | COc1ccc2ncc(F)c(C(O)C[C@H]3OC[C@H](NCc4ccc5c(c4)OCCO5)CO3)c2c1 (mixture of isomers) | 85 | 
6 | COc1ccc2ncc(F)c(C(O)C[C@H]3OC[C@H](NCc4cc5c(nn4)OCCS5)CO3)c2c1 (mixture of isomers) | 30 | 
7 | COc1ccc2ncc(F)c(C(O)C[C@H]3OC[C@H](NCc4ccc(Cl)c(Cl)c4)CO3)c2c1 (mixture of isomers) | 51 | 
8 | COc1ccc2ncc(F)c(C(O)C[C@H]3OC[C@H](NCc4ccc5c(c4)OCCO5)CO3)c2n1 (mixture of isomers) | 145 | 
9 | COc1ccc2ncc(F)c(C(O)C[C@H]3OC[C@H](NCc4cc5c(cn4)OCCO5)CO3)c2n1 (mixture of isomers) | 55 | 
10 | COc1ccc2ncc(F)c(C(O)C[C@H]3OC[C@H](NCc4cc5c(cn4)OCCO5)CO3)c2c1 (mixture of isomers) | 23 | 
11 | COc1ccc2ncc(F)c(C(O)C[C@H]3OC[C@H](NCc4ccc5c(n4)NC(=O)CS5)CO3)c2n1 (mixture of isomers) | 52 | 
12 | COc1ccc2ncc(F)c(C[C@H](O)[C@H]3OC[C@H](NCc4ccc(Cl)c(Cl)c4)CO3)c2n1 | 7 | 34
13 | COc1ccc2ncc(F)c(C[C@H](O)[C@H]3OC[C@H](NCc4cc5c(cn4)OCCO5)CO3)c2n1 | 34 | 324
14 | COc1ccc2ccc(F)c(C[C@H](O)[C@H]3OC[C@H](NCc4ccc5c(n4)NC(=O)CO5)CO3)c2n1 | 10 | 723
15 | COc1ccc2ncc(=O)n(CC(O)[C@H]3OC[C@H](NCc4cc5c(cn4)OCCO5)CO3)c2n1 (mixture of isomers) | 165 | 
16 | COc1ccc2ncc(F)c(C(O)C[C@H]3OC[C@H](NCc4ccc(C)cc4)CO3)c2c1 (mixture of isomers) | 122 | 
17 | COc1ccc2ncc(F)c(C(O)C[C@H]3OC[C@H](NCc4ccc5c(n4)NC(=O)CO5)CO3)c2c1 (mixture of isomers) | 4.9 | > 388
18 | COc1ccc2ncc(=O)n(CC(O)[C@H]3OC[C@H](NCc4ccc5c(c4)OCCO5)CO3)c2c1 (mixture of isomers) | 210 | 
19 | COc1ccc2ncc(F)c(C[C@H](O)[C@H]3OC[C@H](NCc4cc5c(cn4)OCS5)CO3)c2n1 | 4.3 | 59
20 | COc1ccc2ncc(F)c(C[C@H](O)[C@H]3OC[C@H](NCc4cc5c(nn4)OCCO5)CO3)c2n1 | 15 | 146
21 | COc1ccc2ncc(F)c(C[C@H](O)[C@H]3OC[C@H](NCc4ccc(C)cc4)CO3)c2n1 | 17 | 41
22 | COc1ccc2ncc(F)c(C[C@H](O)[C@H]3OC[C@H](NCc4ccc5c(n4)NC(=O)CO5)CO3)c2c1 | 15 | 59
23 | COc1ccc2ncc(F)c(C[C@H](O)[C@H]3OC[C@H](NCc4ccc5c(c4)OCCO5)CO3)c2n1 | 6.3 | 45
